# Most of the hits are listed elsewhere, so they are rarer here than in the full data. Results filed as inconclusive are left out. Calls of active or inactive are those of the source. Calls follow the shape of the dose curve; as a rule, active = well fitted inhibition curve with a large enough effect in the polarisation, with a control signal flat (not every such curve was filed as active); inconclusive = small, poorly fitted or top-dose-only effect, or effect the other way, or a change in a side signal; inactive = no such curve, though single readings can be large or run the other way; the % refers to the polarisation.
# By UniProt entry, the sequences of proteins in these tests, tags left out.
# UniProt Q13526, whole entry, looked up: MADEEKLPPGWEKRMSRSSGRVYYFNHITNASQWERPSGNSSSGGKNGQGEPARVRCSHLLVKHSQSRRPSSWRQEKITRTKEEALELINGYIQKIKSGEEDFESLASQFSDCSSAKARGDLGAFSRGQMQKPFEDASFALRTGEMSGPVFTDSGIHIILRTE
# Biological target: Peptidyl-prolyl cis-trans isomerase NIMA-interacting 1 (Homo sapiens) (UniProt Q13526)
# Test: qHTS Assay to Find Inhibitors of Pin1
# Settings: Pin1 FP peptide displacement, HiFluor488, 10 min; at 115 µM (top of the series)
# From the text: NIH Molecular Libraries Probe Production Network [MLPCN]
# NIH Chemical Genomics Center [NCGC]
# The unique chemical properties of Pro allow for the adoption of two completely distinct amide bond conformations (cis and trans). Peptidyl-prolyl cis/trans isomerases (PPIases) are evolutionary conserved enzymes that catalyze cis/trans isomerization of peptidyl-prolyl peptide bonds. Distinct from all other PPIases such as cyclophilins and FK506-binding proteins (FKBPs), Pin1 binds a subset of phos.Ser/Thr-Pro-containing proteins using its protein-targeting WW domain and isomerizes only specific phos.Ser/Thr-Pro bonds, which cannot be effectively catalyzed by other known PPIases. […]
# The goal of this screen is to find small-molecule inhibitors of Pin1 using a fluorescence polarization competition assay. […]
# Pin1 (0.6 uM) was dispensed into black, solid 1536-well plates at 2 uL/well in 10 mM HEPES (pH 7.5), 10 mM NaCl, 0.01% Tween20, 1 mM DTT, and 1% glycerol. […] The plates were measured on a ViewLux plate reader for fluorescence polarization signal using a 480/20 nM nm excitation filter and 540/25 nM nm S and P emission filters with a 20 second exposure. The %Activity was determined from the corrected fluorescence polarization values. […]
# Concentration-response curves were fitted to the signals arising from the resulting fluorescence polarization. […]
# % is scaled to controls: 0 for no effect and ±100 for the full control effect.
row,SMILES,"activity, negative = inhibition"
1,COc1ccc(CC(C)NCC(O)c2ccc(O)c(NC=O)c2)cc1 (stereo unspecified),inactive: -1.39%
